These are literature values, as cited in US7083961B1 (priority 2002, dated 2006).

The chains behind the UniProt entries cited, without tags or fusion partners.
UniProt P20839, whole entry: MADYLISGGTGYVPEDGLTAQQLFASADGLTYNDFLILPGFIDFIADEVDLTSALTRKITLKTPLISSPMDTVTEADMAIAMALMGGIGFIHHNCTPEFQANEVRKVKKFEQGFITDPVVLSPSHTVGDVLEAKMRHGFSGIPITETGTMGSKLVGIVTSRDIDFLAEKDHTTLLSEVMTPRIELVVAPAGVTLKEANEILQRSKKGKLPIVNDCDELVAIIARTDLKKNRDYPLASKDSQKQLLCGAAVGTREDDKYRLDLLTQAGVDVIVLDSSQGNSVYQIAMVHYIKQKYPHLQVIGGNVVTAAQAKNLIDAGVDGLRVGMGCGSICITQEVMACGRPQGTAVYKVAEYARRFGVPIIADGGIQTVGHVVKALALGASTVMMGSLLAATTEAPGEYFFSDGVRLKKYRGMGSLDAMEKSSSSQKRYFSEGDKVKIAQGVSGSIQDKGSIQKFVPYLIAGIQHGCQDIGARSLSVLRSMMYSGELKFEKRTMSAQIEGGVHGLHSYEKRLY

In this data set the target is human type I IMPDH (Homo sapiens, UniProt P20839).

As for `NC(=O)c1ncn([C@@H]2O[C@H](COP(=O)(O)O)[C@@H](O)[C@H]2O)n1`, the inhibition constant (Ki) is 650 nM.
